The numbers were not newly measured in patent US20200390909A1, “DRUG FRAGMENT IMAGING AGENT CONJUGATES” (The Board of Trustees of the Leland Stanford Junior …, priority 2018, published 2020), which cites them from elsewhere.

For the data set the following is noted: systemically administered, clinical optical contrast agent; cited from earlier work.

On to “IRdye800CW-labeled cetuximab: clinically-approved, systemically-administered optical contrast agent”, for which the TBR was 5.2.
